Biological target: Transient receptor potential cation channel subfamily V member 1 (Homo sapiens, UniProt Q8NER1)
Experiment: Inhibition of calcium influx evoked by capsaicin in human TRPV1 expressing cells by fluorescence assay
Assay type: functional

Protein sequences, listed by entry. Tags and fused reporters are not part of them.
UniProt Q8NER1, whole entry: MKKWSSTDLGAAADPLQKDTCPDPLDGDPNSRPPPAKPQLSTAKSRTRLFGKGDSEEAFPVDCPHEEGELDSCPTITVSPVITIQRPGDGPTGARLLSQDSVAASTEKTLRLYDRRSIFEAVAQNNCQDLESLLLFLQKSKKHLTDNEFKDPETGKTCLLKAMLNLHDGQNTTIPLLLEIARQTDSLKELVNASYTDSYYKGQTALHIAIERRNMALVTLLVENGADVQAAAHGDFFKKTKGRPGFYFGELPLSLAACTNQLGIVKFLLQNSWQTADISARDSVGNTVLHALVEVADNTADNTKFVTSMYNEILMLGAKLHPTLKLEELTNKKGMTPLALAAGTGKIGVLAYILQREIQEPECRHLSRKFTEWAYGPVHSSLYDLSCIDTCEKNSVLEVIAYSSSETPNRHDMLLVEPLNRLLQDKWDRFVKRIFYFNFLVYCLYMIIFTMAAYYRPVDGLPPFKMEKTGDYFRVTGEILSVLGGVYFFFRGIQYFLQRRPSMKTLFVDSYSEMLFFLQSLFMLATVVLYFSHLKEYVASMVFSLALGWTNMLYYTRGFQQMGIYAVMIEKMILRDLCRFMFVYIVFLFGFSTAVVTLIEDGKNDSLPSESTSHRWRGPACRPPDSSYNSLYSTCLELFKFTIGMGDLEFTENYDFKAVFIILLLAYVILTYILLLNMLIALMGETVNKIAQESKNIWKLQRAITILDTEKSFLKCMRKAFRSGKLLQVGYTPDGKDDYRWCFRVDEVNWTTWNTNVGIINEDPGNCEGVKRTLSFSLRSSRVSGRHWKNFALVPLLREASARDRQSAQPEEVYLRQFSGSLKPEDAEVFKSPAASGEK

Compound: Cc1nc(O)c2cc(-c3ccc(Cl)c(O)c3)c(C(C)C)cc2n1
- IC50: 1340 nM

— ChEMBL document CHEMBL1147725, “Identification and biological characterization of 6-aryl-7-isopropylquinazolinones as novel TRPV1 antagonists that are effective in models of chronic pain” (J Med Chem, 2006)
